Results on 1 compound are retold here after patent publication US20080008768A1, “Compositions and Methods for Inhibiting Sonic Hedgehog Activity” (priority 2004, published 2008).

Assay [1] has as its system Shh-dependent pancreatic cancer cell line L3.6pl. Conditions: inhibitor 10 μM, normalized to cell growth in carrier.
Another assay relates to Shh signaling. Conditions: Shh-Light 2 cells; Taipale, et al. (2000); Zeng, et al. (2001); cited from earlier work.

As for `CC1=C2C[C@H]3[C@@H](CC=C4C[C@@H](O)CC[C@@]43C)[C@@H]2CC[C@]12O[C@@H]1C[C@H](C)CN[C@H]1[C@H]2C` [Cyclopamine, reference compound], the “Cell Growth (normalized)” value in assay [1] was 0.7509. In addition, the “Effect on Shh-activated reporter activity (in words)” value in the assay on Shh signaling is reported as “antagonized”.
